Results as given in article PMC8343220, “The selectivity of α‐adrenoceptor agonists for the human α1A, α1B, and α1D‐adrenoceptors” (Pharmacology Research & Perspectives, 2021).

The chains behind the UniProt entries cited, without tags or fusion partners.
UniProt P35368, whole entry: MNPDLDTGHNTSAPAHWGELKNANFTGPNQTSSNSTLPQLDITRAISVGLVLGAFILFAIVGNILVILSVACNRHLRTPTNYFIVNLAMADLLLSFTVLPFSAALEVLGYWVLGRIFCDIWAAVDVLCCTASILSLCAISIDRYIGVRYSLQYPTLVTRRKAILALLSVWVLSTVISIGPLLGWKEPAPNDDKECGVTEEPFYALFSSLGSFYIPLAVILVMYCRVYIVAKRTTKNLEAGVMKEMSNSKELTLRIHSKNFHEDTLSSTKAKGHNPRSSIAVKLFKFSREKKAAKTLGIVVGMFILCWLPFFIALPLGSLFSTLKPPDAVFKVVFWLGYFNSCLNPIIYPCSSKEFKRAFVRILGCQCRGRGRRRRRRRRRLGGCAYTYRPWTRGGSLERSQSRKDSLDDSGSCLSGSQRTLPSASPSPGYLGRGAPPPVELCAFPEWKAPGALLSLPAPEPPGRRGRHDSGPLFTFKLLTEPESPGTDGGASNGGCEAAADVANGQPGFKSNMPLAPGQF
UniProt P25100, whole entry: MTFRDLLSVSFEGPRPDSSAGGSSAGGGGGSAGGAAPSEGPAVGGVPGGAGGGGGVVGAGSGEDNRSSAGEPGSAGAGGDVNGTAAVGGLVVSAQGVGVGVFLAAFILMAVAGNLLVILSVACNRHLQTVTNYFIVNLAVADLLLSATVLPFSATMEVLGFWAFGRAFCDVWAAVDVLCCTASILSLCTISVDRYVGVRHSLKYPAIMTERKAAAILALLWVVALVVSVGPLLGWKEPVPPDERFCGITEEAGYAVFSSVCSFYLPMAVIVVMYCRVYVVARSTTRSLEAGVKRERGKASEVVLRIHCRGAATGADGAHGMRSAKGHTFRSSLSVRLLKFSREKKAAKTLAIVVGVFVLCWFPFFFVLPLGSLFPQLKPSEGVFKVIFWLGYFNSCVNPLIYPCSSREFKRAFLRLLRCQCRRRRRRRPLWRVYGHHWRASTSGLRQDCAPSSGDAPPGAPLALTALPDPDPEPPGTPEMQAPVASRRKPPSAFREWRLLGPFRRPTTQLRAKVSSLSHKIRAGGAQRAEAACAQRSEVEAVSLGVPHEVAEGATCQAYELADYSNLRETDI

Key:
human α1A‐adrenoceptor [1] = molecular target: T1, human α1A‐adrenoceptor (Homo sapiens, UniProt P35348); experiment: Intracellular free calcium mobilization, CHO‐α1A cells; format: cell-based
T1 construct: expressed in transfected cells; host or cells: CHO-K1
T1 sequence (P35348 1-466): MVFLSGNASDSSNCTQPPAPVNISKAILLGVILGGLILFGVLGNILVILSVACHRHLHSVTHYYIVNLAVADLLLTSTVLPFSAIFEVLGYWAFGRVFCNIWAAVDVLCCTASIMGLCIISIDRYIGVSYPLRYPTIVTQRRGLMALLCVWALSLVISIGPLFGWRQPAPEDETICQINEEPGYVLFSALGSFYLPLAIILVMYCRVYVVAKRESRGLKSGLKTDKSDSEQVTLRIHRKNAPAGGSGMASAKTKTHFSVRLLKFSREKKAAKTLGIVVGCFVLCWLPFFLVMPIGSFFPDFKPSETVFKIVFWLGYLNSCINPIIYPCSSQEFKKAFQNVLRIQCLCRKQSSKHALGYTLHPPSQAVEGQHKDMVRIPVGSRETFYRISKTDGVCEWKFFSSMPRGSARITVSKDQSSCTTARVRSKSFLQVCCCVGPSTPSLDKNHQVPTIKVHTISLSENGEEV

human α1B‐adrenoceptor [2] = molecular target: T2, human α1B‐adrenoceptor (Homo sapiens, UniProt P35368); experiment: Intracellular free calcium mobilization, CHO‐α1B cells; format: cell-based
T2 construct: expressed in transfected cells; host or cells: CHO-K1

human α1A‐adrenoceptor [3] = molecular target: T1, human α1A‐adrenoceptor; experiment: ERK1/2‐phosphorylation (Surefire Alphascreen), CHO‐α1A cells; format: cell-based
[4] = system: parental CHO cell line without any transfected receptors; experiment: Forskolin‐stimulated cAMP accumulation, parent CHO cells without transfected receptors; format: cell-based, Chinese hamster
human α1A‐adrenoceptor [5] = molecular target: T1, human α1A‐adrenoceptor; experiment: ^3H‐cAMP accumulation, CHO‐α1A cells; format: cell-based; conditions: % of 10 µM forskolin response
[6] = molecular target: T3, human α1D‐adrenoceptor (full length) (Homo sapiens, UniProt P25100); experiment: Intracellular free calcium mobilization, CHO‐α1D cells; format: cell-based
T3 construct: human α1D‐adrenoceptor (full length) were used; expressed in transfected cells; host or cells: CHO-K1

human α1B‐adrenoceptor [7] = molecular target: T2, human α1B‐adrenoceptor; experiment: ERK1/2‐phosphorylation (Surefire Alphascreen), CHO‐α1B cells; format: cell-based
human α1A‐adrenoceptor [8] = molecular target: T1, human α1A‐adrenoceptor; experiment: ^3H‐cAMP accumulation in the presence of 10 μM forskolin, CHO‐α1A cells; format: cell-based; conditions: fold increase of the forskolin response
[9] = molecular target: T3, human α1D‐adrenoceptor (full length); experiment: ERK1/2‐phosphorylation (Surefire Alphascreen), CHO‐α1D cells; format: cell-based
[10] = system: parental CHO cell line without any transfected receptors; experiment: ERK1/2‐phosphorylation, parent CHO cells without transfected receptors; format: cell-based, Chinese hamster
[11] = molecular target: T3, human α1D‐adrenoceptor (full length); experiment: ^3H‐prazosin whole‐cell radioligand binding, CHO‐α1D cells

Row | SMILES | Intracellular calcium release % ionomycin (human α1A‐adrenoceptor [1]) | Intracellular calcium release % ionomycin (human α1B‐adrenoceptor [2]) | ERK1/2‐phosphorylation % PDBu (human α1A‐adrenoceptor [3]) | cAMP accumulation (in presence of forskolin) Log EC50 [4] | cAMP accumulation % forskolin (human α1A‐adrenoceptor [5]) | Intracellular calcium release % Ionomycin at 100 µM [6] | ERK1/2‐phosphorylation % PDBu (human α1B‐adrenoceptor [7]) | cAMP accumulation (in presence of forskolin) Fold increase (human α1A‐adrenoceptor [8]) | ERK1/2‐phosphorylation % PDBu [9] | ERK1/2-phosphorylation Log EC50 [10] | Affinity selectivity ratio α1B vs α1D [11]
1 | CC(Cc1ccc(O)cc1)NCC(O)c1cc(O)cc(O)c1 (centres unmarked) [Fenoterol] | 30.3 ± 7.6% | 38.0 ± 3.2% | 33.8 ± 6.7% | No response | No response | 4.4 ± 1.8% | 33.8 ± 7.3% | No response | 7.6 ± 1.4% | No response | –
2 | Nc1cc(Cl)c(N=C2NCCN2)c(Cl)c1 [para‐amino‐clonidine] | – | – | – | – | – | – | – | – | – | – | 1.7 fold
